In patent US12139488B2, “Pyrido[3,2-d]pyrimidine compounds uses thereof for treating a proliferative disease” (Universite de Montreal, priority 2021, dated 2024) one finds IC50 data, which are given here for 25 compounds.

This assay deals with pERK in HCT-116 cells (KRAS G13D). Nature of the assay: Phospho-ERK inhibition (AlphaLISA SureFire Ultra p-ERK 1/2), HCT116. The settings on record: read-out: HCT116 pERK IC50; HCT116 cells; class symbol. The protocol: All cancer cell lines (A375, A101D, A2058, RKO, HT29 SK-MEL 30, IPC298, HepG2, HCT-116, Lovo, SWV620, SW480, NCI-H358, NCI-H2122, Calu-6, NCIH2087, NCIH1755, NCIH1666 and Mewo) were obtained from ATCC and cultured in RPMI-1640 medium (Gibco) supplemented with 5% heat inactivated fetal bovine serum (FBS, Wisent) at 37° C. under 5% CO2. Cells were maintained in T175 flasks (Greiner). They were passaged by removing the culture medium, washing once in 10 mL of room temperature Phosphate Buffered Saline (PBS; Wisent) and incubating at 37° C. with 2 mL of 0.05% Trypsin (Thermo-Fisher). Trypsin was then inactivated by adding complete growth medium and the cells were then replated in a T175 culture dish at the appropriate dilution. All cell lines were routinely tested for mycoplasma contamination. Tissue type and mutational status of each cell line can be found in Table B.
AlphaLISA® SureFire® Ultra™ p-ERK 1/2 (Thr202/Tyr204) analysis was conducted on cells plated in 100 μL of complete RPMI-1640 growth medium in 96-well flat-bottomed transparent dishes (Costar) at a density indicated in Table C. Cells were maintained overnight at 37° C. under 5% CO2 before treatment with compounds' dilution series for one hour. The cell density in cells/cm^2 corresponds to cell number divided by the area of one well of a 96-well plate ([…]).
In a dilution series 100 μL/well of test substance dilution prepared in complete RPMI-1640 growth media was added to the cells. The dilution series is selected so that ten concentrations cover a range from 10 μM to 0.33 nM. If necessary the initial concentration of 10 μM is increased to 100 μM or lowered to 1 μM (as in the case of A375 and H1666 cells, which are generally more sensitive to the compounds) and further dilution is carried out accordingly. The final concentration of DMSO in the assay is set at 0.5%.
After treatment, media was removed and cells were lysed in 50 μL of 1× AlphaScreen Ultra Lysis Buffer (Perkin Elmer). The AlphaLISA® SureFire® Ultra™ p-ERK 1/2 (Thr202/Tyr2O4) (PerkinElmer) reactions were performed with 5 μL of cell lysate according to the manufacturer's specifications in 384-well proxyplates (Perkin Elmer) followed by overnight incubation of the reactions at room temperature in a humidified chamber. After completion of the reactions, the signals were recorded on an EnVision plate reader (Perkin Elmer) using built in AlphaLISA® settings.
The effect of each compound dilution on the pERK signal was expressed in % inhibition and calculated as follows. An internal 100% inhibition control ([…] trametinib, cat #HY-10999; MedChem Express; CAS #871700-17-3) was included in each plate and used as a measure of pERK background. First, the value obtained for trametinib was subtracted from each data point. The average of DMSO (vehicle) controls (set as 0% inhibition) was established and used to calculate % inhibition: % inhibition=100*(1-((pERK signalcompound)/(pERK signalDMSO)))
The ability of each compound to inhibit pERK signal was expressed as an IC50 value obtained by plotting the inhibition values for each data point of a dilution series and fitting the obtained curves using a log(agonist) versus response-variable slope (four parameters) function using GraphPadPrism (V7.0) or Dotmatics Screening Ultra platform.
When present, paradoxical pERK induction is inferred from the negative % inhibition values observed in the pERK IC50 curves of a compound.
Take `CN(C1CCOC1)S(=O)(=O)c1cn(-c2ccc3ncnc(Nc4c(F)ccc(NS(=O)(=O)c5cccc(Cl)c5Cl)c4F)c3n2)c2ccccc12` (stereo not shown): the IC50 lay in the range of 500 to 1000 nM.

On to `COc1ccc(S(=O)(=O)Nc2ccc(F)c(Nc3ncnc4ccc(-n5cnc6c(N)cccc65)nc34)c2F)c(C)c1Cl`, for which the IC50 is less than 500 nM.

Regarding `O=S(=O)(Cc1ccccc1F)c1cn(-c2ccc3ncnc(Nc4c(F)ccc(NS(=O)(=O)c5cccc(Cl)c5Cl)c4F)c3n2)c2ccccc12`, the IC50 was 1000 to 10000 nM.

Regarding `Cc1c(C(F)(F)F)cccc1S(=O)(=O)Nc1ccc(F)c(Nc2ncnc3ccc(-n4cnc5c(N)cccc54)nc23)c1F`, the IC50 is 500 to 1000 nM.

With `O=S(=O)(Nc1ccc(F)c(Nc2ncnc3ccc(-n4cc(S(=O)(=O)N5CCC(O)CC5)c5ccccc54)nc23)c1F)c1cccc(Cl)c1Cl`, the IC50 was less than 500 nM.

Consider `Cc1c(F)cccc1S(=O)(=O)Nc1ccc(F)c(Nc2ncnc3ccc(-n4nc(C(=O)N(C)CC(C)(C)O)c5ccccc54)nc23)c1F`, for which the IC50 is less than 500 nM.

With `Cc1c(F)cccc1S(=O)(=O)Nc1ccc(F)c(Nc2ncnc3ccc(-n4nc(C(=O)N(C)Cc5ccncn5)c5ccccc54)nc23)c1F`, the IC50 was less than 500 nM.

On to `O=S(=O)(Nc1ccc(F)c(Nc2ncnc3ccc(-n4cnc(-c5ccccc5)c4)nc23)c1F)c1cccc(Cl)c1Cl`, for which the IC50 was 1000 to 10000 nM.

As for `Cc1c(F)cccc1S(=O)(=O)Nc1ccc(F)c(Nc2ncnc3ccc(-n4cc(S(=O)(=O)N(C)Cc5ccncc5)c5ccccc54)nc23)c1F`, the IC50 was less than 500 nM.

With `Cc1c(F)cccc1S(=O)(=O)Nc1ccc(F)c(Nc2ncnc3ccc(-n4cc(S(=O)(=O)N5CCOCC5)c5ccccc54)nc23)c1F`, the IC50 is less than 500 nM.

As to `Cc1nc(C)n(-c2ccc3ncnc(Nc4c(F)ccc(NS(=O)(=O)c5cccc(Cl)c5Cl)c4F)c3n2)n1`, the IC50 was in the range of 1000 to 10000 nM.

`CC(C)(O)C1CN(c2cccc3c2ncn3-c2ccc3ncnc(Nc4c(F)ccc(NS(=O)(=O)c5cccc(Cl)c5Cl)c4F)c3n2)C1`: the IC50 is less than 500 nM.

`O=S(=O)(Nc1ccc(F)c(Nc2ncnc3ccc(-n4nc5ccccc5n4)nc23)c1F)c1cccc(Cl)c1Cl`: the IC50 fell in the range of 1000 to 10000 nM.

For `CCc1c(Cl)cccc1S(=O)(=O)Nc1ccc(F)c(Nc2ncnc3ccc(-n4cnc5c(N)cccc54)nc23)c1F`, the IC50 was in the range of 500 to 1000 nM.

On to `CN([C@@H]1CCOC1)S(=O)(=O)c1cn(-c2ccc3ncnc(Nc4c(F)ccc(NS(=O)(=O)c5cccc(Cl)c5Cl)c4F)c3n2)c2ccccc12`, for which the IC50 was less than 500 nM.

With `CN([C@H]1CCOC1)S(=O)(=O)c1cn(-c2ccc3ncnc(Nc4c(F)ccc(NS(=O)(=O)c5cccc(Cl)c5Cl)c4F)c3n2)c2ccccc12`, the IC50 is less than 500 nM.

As for `O=S(=O)(Nc1ccc(F)c(Nc2ncnc3ccc(-n4cc(S(=O)(=O)C5CCOCC5)c5ccccc54)nc23)c1F)c1cccc(Cl)c1Cl`, the concentration for half-maximal inhibition (IC50) was less than 500 nM.

With `CCc1c(F)cccc1S(=O)(=O)Nc1ccc(F)c(Nc2ncnc3ccc(-n4cnc5c(N)cccc54)nc23)c1F`, the IC50 was less than 500 nM.

For `COc1cc(C)c(S(=O)(=O)Nc2ccc(F)c(Nc3ncnc4ccc(-n5cnc6c(N)cccc65)nc34)c2F)cn1`, the IC50 lay within 1000 to 10000 nM.

On to `O=S(=O)(Nc1ccc(F)c(Nc2ncnc3ccc(-n4cc(S(=O)(=O)C5CCN(C6COC6)CC5)c5ccccc54)nc23)c1F)c1cccc(Cl)c1Cl`, for which the IC50 was less than 500 nM.

In the case of `COc1ccc(S(=O)(=O)Nc2ccc(F)c(Nc3ncnc4ccc(-n5cc(S(=O)(=O)N(C)CCN(C)C)c6ccccc65)nc34)c2F)c(C)c1Cl`, the IC50 is less than 500 nM.

For the compound `O=S(=O)(Cc1ccccn1)c1cn(-c2ccc3ncnc(Nc4c(F)ccc(NS(=O)(=O)c5cccc(Cl)c5Cl)c4F)c3n2)c2ccccc12`, the IC50 is less than 500 nM.

As for `Nc1cccc2c1ncn2-c1ccc2ncnc(Nc3c(F)ccc(NS(=O)(=O)c4scc(Cl)c4Cl)c3F)c2n1`, the IC50 is less than 500 nM.

Take `CN(C)[C@@H]1CCN(S(=O)(=O)c2cn(-c3ccc4ncnc(Nc5c(F)ccc(NS(=O)(=O)c6cccc(Cl)c6Cl)c5F)c4n3)c3ccccc23)C1`: the IC50 is less than 500 nM.

As for `Cc1c(Cl)csc1S(=O)(=O)Nc1ccc(F)c(Nc2ncnc3ccc(-n4cnc5c(N)cccc54)nc23)c1F`, the IC50 is less than 500 nM.

What is called IC50 is the concentration that inhibits the measured activity by half.
